Experimental findings from US20050165030A1, “Pharmaceutical compositions comprising a multifunctional phosphodiesterase inhibitor and an adenosine uptake inhibitor” (priority 2001, published 2005) are described below.

The structures appear in SMILES notation.

What is called IC50 is the concentration at which inhibition is half-maximal.

This test concerns adenosine uptake into washed human platelets. As to the kind of experiment: cells. To be noted: Platelet, read-out: IC50 of adenosine uptake inhibition.

On to `O=C1CCc2cc(OCCCCc3nnnn3C3CCCCC3)ccc2N1` [cilostazol, 6-[4-(1-cyclohexyl-1H-tetrazol-5yl)butoxy]-3,4-dihydro-2(1H)-quinolinone], for which the IC50 is around 7 µM.
